# Yeast mating assay 2: variants of the scFv Ab-95

Target peptide (SARS-CoV-2 spike, HR2 region): PDVDLGDISGINAS

The variants keep the heavy chain, the linker and the frameworks of Ab-95 (scFv order VH, a (GGGGS)3 linker, VL).
VH: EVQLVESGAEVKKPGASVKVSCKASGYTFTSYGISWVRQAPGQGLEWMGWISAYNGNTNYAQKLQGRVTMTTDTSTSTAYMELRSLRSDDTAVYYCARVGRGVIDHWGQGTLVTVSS
VL: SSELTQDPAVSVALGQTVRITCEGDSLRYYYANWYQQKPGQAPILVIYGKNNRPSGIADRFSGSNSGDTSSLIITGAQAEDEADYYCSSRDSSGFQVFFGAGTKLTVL

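Phage display of a naive human antibody library on the peptide gave the parent. Library AAYL52 holds single substitutions and randomly drawn double and triple substitutions in the CDRs. In AlphaSeq, yeast of one mating type display the scFv and yeast of the other type display the target. Binding brings cells together so that they mate, and sequencing counts the barcode pairs among the diploids. The ratio of observed to expected reads was calibrated, replicate by replicate, on BCL2-family standards whose Kd was known from biolayer interferometry. There are three technical replicates.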

Each variant is given by its three light chain CDRs, as the data file delimits them; those of the parent are EGDSLRYYYAN, GKNNRPS, SSRDSSGFQVF. Numbers give log10(Kd / nM), so 0 is 1 nM and 3 is 1 µM. Smaller is tighter. "nd" marks a missing value. The strain was present, yet no cells mated with the target were sequenced in that replicate, which points to weak or no binding. Nonspecific signal, from three strains lacking the peptide, appeared in 28% of pairings of library AAYL52, centred on 3.91 (5% of these signals below 2.90); values are not corrected for it. For each scFv, signals with the empty controls are counted beside the result, with their mean in brackets.

CDR-L1	CDR-L2	CDR-L3	log10 Kd, replicates	control signals
EGDSLRYYDAN	GTNNPPS	SSRDSSGFQVF	4.88 4.35 3.44	2/9 (4.14)
EGDSLHYYYAN	GKNNRPS	SSRDSSHFQVF	nd 4.16 2.52	5/9 (3.94)
EGDSLFKYYAN	GHNNRPS	SSRDSSGFQVF	2.56 2.57 2.89	3/9 (3.93)
EGDWLRYYYAN	GKNNRPS	SSADSSNFQVF	4.57 4.09 nd	6/9 (3.55)
EGDSMRYYYAN	GKNNRPS	SSRFSSGFQTF	3.75 4.08 3.21	1/9 (4.33)
EGDSLRNYYAN	GKNNRPS	ISRDSSGFQVF	1.55 1.17 0.94	6/9 (4.15)
EGDSLGYYYAN	GKNNRPS	SYRDSSGMQVF	1.90 2.02 1.98	4/9 (4.26)
EGDMLRYYYAN	GKNNRPS	SSRYMSGFQVF	nd 3.03 3.55	3/9 (3.39)
EGDSLRYIYAN	GLSNRPS	SSRDSSGFQVF	nd 5.38 nd	2/9 (3.91)
EGDSLRYGYAN	QKNNRPS	SSRDSSGFQLF	1.26 1.41 0.93	4/9 (4.29)
LGDSLRYYYRN	GKNNRPS	SSRDSSGFQFF	3.43 4.78 4.37	4/9 (4.71)
EGDSARYYYAN	GKNNRPS	CSRDNSGFQVF	nd 4.97 3.88	0/9
ENDSLRFYYAN	GKNNRSS	SSRDSSGFQVF	nd 2.45 nd	0/9
EGDSLRYNYAN	GKNNRPH	SSRDSSGDQVF	1.37 1.17 0.82	5/9 (4.19)
EGDSLRYYYAN	GKNNRPS	YSRDSGGCQVF	3.31 2.85 nd	2/9 (2.81)
EGDSLRYDYAN	GKNNRPS	SSRDSSGPLVF	nd nd nd	0/9
EGASLRYYYAN	GKLNRPS	SSRDSSGFQVF	4.44 3.41 2.79	5/9 (3.96)
EGDSLRYYYAN	GKNKYPS	SGRDSSGFQVF	nd nd 4.22	4/9 (3.43)
EGDSLRYYYAN	GKNNPPS	SSRMSSGFYVF	3.89 3.53 3.13	5/9 (4.28)
KGDSLRYYYAN	GKNNRAS	SSRDSSGFQGF	2.59 3.24 2.56	0/9
EGDTLRYYYAN	GKNNRPS	SSRDSSGAQVR	nd nd nd	0/9
EGDSLRYYYAN	PKPNRPS	SSRDSSNFQVF	4.60 nd 4.04	1/9 (5.73)
EGDTLRYYYAN	GNNNRPS	SSRDSSGFQVF	2.98 2.47 2.37	3/9 (3.44)
EGDSLRYQNAN	GKVNRPS	SSRDSSGFQVF	1.57 1.59 0.71	0/9
EGDSLRYYYAF	GKNNRPS	ESRDSSMFQVF	4.01 4.90 nd	3/9 (3.80)
EGSSLRYYVAN	GKNNRIS	SSRDSSGFQVF	3.96 3.47 nd	2/9 (4.17)
EGDSLRYYYMN	GKNNRPS	SSRDSSGFSYF	nd nd 3.88	5/9 (3.80)
EWDSLAYYYAN	GKNNRPS	PSRDSSGFQVF	nd nd 3.38	4/9 (4.22)
EGDSLRYYYAM	GKNNRPW	SSFDSSGFQVF	nd nd 2.89	0/9
EGDSLRYYYAN	GKNNRPS	SSRDSSGPPVF	3.51 3.01 nd	5/9 (3.63)
EGDSLLYYYAN	GKNNHPS	SSRCSSGFQVF	3.55 4.60 nd	2/9 (3.67)
EGDSLRYYYAN	GKNNRPS	FMRDSMGFQVF	2.98 2.86 2.50	2/9 (3.23)
EGDSTRYYYAN	GKNNRPS	SSRDSSGFQDV	3.21 3.27 3.65	4/9 (4.05)
EGDSLRYYYAN	GKNDWPP	SSRDSSGFQVF	nd nd nd	1/9 (4.46)
EGDSLRYYYAN	GKNNRPS	SSRDSSQFQVF	2.65 2.52 2.76	2/9 (3.54)
EGDSLCYYYAN	GKNNRPS	SSRDSSGFQWY	3.18 3.75 4.40	2/9 (4.35)
EGDSLRSYYAN	GKNNRPS	SSRDASGFYVF	1.92 1.83 2.09	3/9 (3.74)
EGDILRYYVAN	GKNNRPS	SLRDSSGFQVF	3.58 nd nd	2/9 (3.70)
EGDSLPYYYAN	GMNNRPS	SSRDSSGFQVF	2.91 2.76 2.18	7/9 (3.72)
EGDSLRYYVAN	GFNNRGS	SSRDSSGFQVF	3.93 3.99 3.70	4/9 (4.15)
EGDSLRYYYAN	GKNNRPS	SSRDSTVFQVW	4.64 4.85 nd	2/9 (4.88)
EGDSLRYYWAN	GKNNRPS	SSRDSSGMQVF	3.84 3.11 2.32	0/9
EGDSLRYYYWN	GKNNFPS	SSRDSSGFQCF	nd nd 3.65	4/9 (3.29)
EGDSLRYYYAN	GKNNRPS	SSRDSSGYQVF	2.05 2.23 1.68	3/9 (4.26)

A selection of 5 entries from above:

CDR-L1,CDR-L2,CDR-L3,"log10 Kd, replicates",control signals
EGDSLRYQNAN,GKVNRPS,SSRDSSGFQVF,1.57 1.59 0.71,0/9
EGDSLRYYYAN,GKNDWPP,SSRDSSGFQVF,nd nd nd,1/9 (4.46)
EGDSLRYYYAN,GKNNRPS,SSRDSSGPPVF,3.51 3.01 nd,5/9 (3.63)
EGDSLHYYYAN,GKNNRPS,SSRDSSHFQVF,nd 4.16 2.52,5/9 (3.94)
EGDSLRYYYAM,GKNNRPW,SSFDSSGFQVF,nd nd 2.89,0/9

Parent in this assay: reference entry 2.31, copy in this library 2.25.

Data: MIT Lincoln Laboratory AlphaSeq set, Engelhart et al. 2022, doi:10.1038/s41597-022-01779-4, as distributed in FLAb.